This test has as its system KPNA4 ARM. Put plainly: GenVar_HD2 ProP-PD phage selection, KPNA4 ARM. In kind it is binding, human. The conditions noted are these: bait-prey protein level, bait_accession O00629. The protocol:
Phage display screens were performed according to previous reports (Benz et al, [2022]; Ali et al, [2020]) and for four consecutive selection rounds with five to six replicates per bait protein domain against the […] library.
On the first day, both bait (15 µg in 100 µL PBS) and control protein domains (GST and MBP; 10 µg in 100 µL PBS) were immobilised on a 96-well MaxiSorb plate (Nunc) overnight in the cold room while shaking. Additionally, a 10 mL culture of Omnimax E. coli bacteria supplemented with 10 µg/mL tetracycline was incubated overnight at 37 °C at 200 rpm.
First, protein solutions were removed from both control and bait protein domain plates and the wells were blocked with 0.5% BSA in PBS (200 µL/well) for 1 h in the cold room while shaking. After that, three Omnimax E. coli cultures were started supplemented with either 30 µg/mL kanamycin, 100 µg/mL carbenicillin and 10 µg/mL tetracycline and incubated at 37 °C and 200 rpm. The two first cultures served as a means to check for helper phage contamination (kanamycin) and phages with library phagemid contamination (carbenicillin) of the culture used for elution of the phages during selections. The tetracycline Omnimax E. coli culture was grown until OD at 600 nm reached 0.6–0.8. […]

In paper PMC11369174, “Proteome-scale characterisation of motif-based interactome rewiring by disease mutations” (Molecular Systems Biology, 2024) one finds max_promiscuity and max_specificity data, which are given here for 1 substance.

With O43526, the max_promiscuity was 6 and the max_specificity amounted to 0.8684.
